The values below are quoted from earlier work in patent US20070105848A1 (priority 2005, published 2007).

The test system of this data set is adult humans. The settings on record: recommended doses, oral or i.v.

SMILES strings stand for the structures.

`CN(C)c1ccc2nc3ccc(N(C)C)cc3[s+]c2c1.[Cl-]` [Methylene blue, 3,7-bis(dimethylamino)-phenothiazin-5-ium chloride]: the side effects entry was “blue urine, occasional nausea, anemia and fever”.
